From PubChem
Sampled rows, rich in hits. Any-hit rate of the full collection: about 1.7%.
dFosB activator – mouse delta FosB homodimer activation; AID 493131; 340,000 tested, 0.99% active; purified delta FosB, TAMRA-CDK5 oligo fluorescence polarization; percent of positive-control signal above neutral wells; activation, % at 25 µM; P13346;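 active means mean activation above about 17%, with every replicate also reaching it, limit read from the data, passing the limit was not always enough; inconclusive means only one of the two conditions met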
Dyrk1A ADPGlo – Dyrk1A (rat) kinase inhibition | inhibition, % at 12.5 µM | Q63470 | 310,000 tested, 0.43% active | AID 504441 | ADP-Glo luminescence, NFATc1 peptide; in the data active means inhibition above about 50%;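 further: plate controls were vehicle with enzyme for no effect and no enzyme for full effect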
CDK5 inh – CDK5/p35 (human) kinase inhibition; Q00535+Q15078; Recombinant CDK5/p35, ADP-Glo luminescence, 60 min; inhibition, % at 10 µM; 330,000 tested, 0.01% active;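 active means highest replicate inhibition of at least 50% and at least 75% of replicates reaching 50%; inconclusive means only one of the two criteria met; inactive means both criteria failed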;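 further: plate controls were DMSO neutral control for no effect and GW8510 at 10 µM for full effect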
CAL PDZ FP-1 – human CAL PDZ-peptide interaction inhibition | 330,000 tested, 0.02% active | purified CAL PDZ, TMR-peptide fluorescence polarization, 1 h | AID 504414 | Q9HD26 | inhibition, % at 20 µM;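 active means highest replicate inhibition of at least 40%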;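 further: plate controls were DMSO neutral control wells for no effect and unlabeled competitor peptide control wells for full effect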
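Test system: tagged CAL PDZ domain / Buffer or medium: sodium phosphate/NaCl buffer pH 7.4 with TCEP, IgG, Thesit / Reagent: TMR-labelled reporter peptide T*-PRC34 bound in PDZ groove / Compound dosing: single point, 20 µM / Schedule: 1 h incubation at room temperature before polarization reading / Technique: fluorescence polarization (mP) / Benchmarks: unlabelled peptide, DMSO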
UUG fidelity – modulators of yeast start codon fidelity, primary screen, whole organism, S. cerevisiae, single point, plate reader | AID 602363, 2012 | actives 0.13% (n = 350,000) | activity score, % at 18.7 µM | S. cerevisiae UUG-firefly luciferase reporter, luminescence/redox ratio;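 active means replicate mean at a twofold rise or more, about +100% in these data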;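 further: firefly luciferase made from a UUG start codon reports start codon fidelity; reporter light over untreated wells divided by growth signal over untreated wells; some hits fall short of that in this replicate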
CAL PDZ FP-2 – CAL PDZ (human) peptide binding inhibition. Q9HD26. purified CAL PDZ, TMR-peptide fluorescence polarization, 1 h. inhibition, % at 24.9 µM. 300,000 tested, 0.92% active. AID 602252;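 active means mean inhibition of at least 30% with at least half of replicates also reaching 30%; inconclusive means no clear call, values can overlap the other calls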;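 further: 0% = DMSO neutral control and 100% = excess unlabeled competitor peptide PRC23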
* = called active by the depositor; ? = inconclusive; · = no result given.

SMILES	dFosB activator	Dyrk1A ADPGlo	CDK5 inh	CAL PDZ FP-1	UUG fidelity	CAL PDZ FP-2
COc1ccccc1Oc1nc2c(c(=O)n(Cc3ccccc3F)c(=O)n2C)n1C	-3	2	1	-2	-8	75*
CN(C)c1ccc2c(c1)[C@H]1C[C@H](CC(=O)NC3CCCC3)O[C@H](CO)[C@H]1O2	·	·	·	·	-8	·
C=CC(=O)Nc1ccc(N(C)c2ccnc(Nc3ccc(N4CCN(C)CC4)cc3)n2)cc1	50*	22	10	2	-22	0
CN1CCN(c2ccc(NC(=O)c3ccc(Oc4ccccc4)cc3)cc2)CC1	-2	5	0	-2	-5	-3
C[C@@H]1CN([C@@H](C)CO)S(=O)(=O)c2ccc(-c3ccccc3)cc2O[C@@H]1CN(C)S(C)(=O)=O	·	·	·	·	5	·
CCOC(=O)c1c(C)[nH]c(C)c1C(=O)CN1C(=O)NC2(CCCCCC2)C1=O	-6	1	0	0	2	35*
CC(C)(C)NC(=O)C1CC1(c1ccccc1)c1ccccc1 (configuration not stated)	1	-3	-2	·	-15	46*
CC(C)C(=O)NNC(=O)C1CC1(c1ccccc1)c1ccccc1 (configuration not stated)	-17	5	2	0	4	-3
Cc1cccc(NC(=O)Cn2c(O)c(N=NC(N)=S)c3ccccc32)c1	40*	-2	-5	-1	-18	-1
COc1ccccc1NC(=O)Cn1c(O)c(N=NC(=O)c2ccccc2O)c2ccccc21	70*	-5	-2	-1	-15	·
Cc1ccc(NC(=O)Cn2c(O)c(N=NC(=O)c3ccncc3)c3ccccc32)cc1	-6	3	0	-2	·	-3
Cc1cc([N+](=O)[O-])nn1CC(=O)Nc1cc(F)ccc1F	-1	·	4	-2	·	69*
Cc1ccnn1CC(=O)N/N=C/c1cccs1	-2	1	-1	-1	-8	-1
Cc1cc([N+](=O)[O-])nn1CC(=O)NCc1ccc(Cl)cc1	1	-1	0	-1	-10	-3
Cc1ccnn1CC(=O)N/N=C/c1ccc([N+](=O)[O-])s1	1	4	0	-1	·	87*
Cc1cc([N+](=O)[O-])nn1CC(=O)N/N=C/c1ccccc1F	0	·	1	-1	·	44*
CN(C)CC(=O)Nc1ccc2c(c1)[C@H]1C[C@H](CC(=O)NCCN3CCCCC3)O[C@H](CO)[C@H]1O2	·	·	·	·	5	·
Cc1nc(NCCCN2CCOCC2)c2cnn(-c3ccccc3)c2n1	-6	0	-1	-1	9	36*
c1ccc(-n2ncc3c(NCCN4CCOCC4)ncnc32)cc1	-5	2	0	0	-11	-2
CCC(=O)Nc1ccc2c(c1)C(=O)N(C)C[C@@H](OC)[C@@H](C)CN(Cc1ccccn1)[C@@H](C)CO2	·	·	·	·	1	·
COc1ccc(Nc2nc3ccccc3n3cnnc23)cc1	-22	28	-1	-3	-11	60*
CCC(=O)Nc1ccc2c(c1)C(=O)N(C)C[C@H](OC)[C@H](C)CN(Cc1cccnc1)[C@H](C)CO2	·	·	·	·	-5	·
COc1cc(/C=N/NC(=O)CSc2ccccn2)ccc1O	-5	·	-2	-1	·	44*
CCn1cc(/C=N/NC(=O)COc2cccc3cccnc23)c2ccccc21	-5	0	-2	-2	·	-2
COc1ccc(/C=N/NC(=O)COc2cccc3cccnc23)cc1OC	31*	·	0	-4	·	-5

Quoted at random: six records from the list
SMILES	dFosB activator	Dyrk1A ADPGlo	CDK5 inh	CAL PDZ FP-1	UUG fidelity	CAL PDZ FP-2
COc1cc(/C=N/NC(=O)CSc2ccccn2)ccc1O	-5	·	-2	-1	·	44*
CC(C)C(=O)NNC(=O)C1CC1(c1ccccc1)c1ccccc1 (configuration not stated)	-17	5	2	0	4	-3
C=CC(=O)Nc1ccc(N(C)c2ccnc(Nc3ccc(N4CCN(C)CC4)cc3)n2)cc1	50*	22	10	2	-22	0
COc1ccc(Nc2nc3ccccc3n3cnnc23)cc1	-22	28	-1	-3	-11	60*
CN(C)c1ccc2c(c1)[C@H]1C[C@H](CC(=O)NC3CCCC3)O[C@H](CO)[C@H]1O2	·	·	·	·	-8	·
Cc1nc(NCCCN2CCOCC2)c2cnn(-c3ccccc3)c2n1	-6	0	-1	-1	9	36*

Next section
SMILES	dFosB activator	Dyrk1A ADPGlo	CDK5 inh	CAL PDZ FP-1	UUG fidelity	CAL PDZ FP-2
Cc1ccc(/C=C2\SC(=S)N(CCCC(=O)NNC(=O)c3ccccc3O)C2=O)cc1	9	4	0	-1	-6	4
COc1cccc(/C=C2/SC(=S)N(CC(=O)NNC(=O)c3ccccc3O)C2=O)c1	21*	-3	-1	-2	-13	5
O=C(CN1C(=O)/C(=C/c2ccccc2)SC1=S)NNC(=O)c1ccccc1O	?	-8	-2	-3	·	3
Cc1ccc(/C=C2\SC(=S)N(CCC(=O)NNC(=O)c3ccccc3O)C2=O)cc1	66*	-2	0	0	-11	-3
O=C(CCN1C(=O)/C(=C/c2ccccc2Cl)SC1=S)NCCc1ccc(O)cc1	23*	-4	-1	-2	-14	-1
Cc1ccc(/C=C2\SC(=S)N(CCC(=O)NNC(=O)c3ccc(O)cc3)C2=O)cc1	144*	3	1	-5	1	·
COc1ccccc1CN1CC[C@H]2[C@H](CO)Nc3ccc(C#Cc4ccccc4)cc3[C@H]21	·	·	·	·	9	·
CO[C@@H]1CN(C)C(=O)c2cc(NS(C)(=O)=O)ccc2OC[C@@H](C)N(C(=O)C2CCCCC2)C[C@@H]1C	·	·	·	·	-4	·
O=C(C[C@@H]1CC[C@H](NC(=O)CN2CCOCC2)[C@@H](CO)O1)NC1CCCCC1	·	·	·	·	-3	·
O=C(CCN1C(=O)/C(=C/c2ccccc2Cl)SC1=S)NNC(=O)c1ccccc1O	37*	-7	2	-3	-18	-4
Cc1ccc(/C=C2\SC(=S)N(CCC(=O)NNC(=O)c3cccc(O)c3)C2=O)cc1	?	-3	-1	-5	-10	-2
Cc1ccc(/C=C2\SC(=S)N(CCC(=O)NNS(=O)(=O)c3ccccc3)C2=O)cc1	22*	-6	3	-1	7	-4
O=C(CCN1C(=O)/C(=C/c2ccccc2Cl)SC1=S)NNC(=O)c1cccnc1	2	1	-2	-1	·	-8
CCSc1nnc(NC(=O)c2ccco2)s1	2	-1	0	-1	-24	1
CC(C)Sc1nnc(NC(=O)c2ccco2)s1	-4	0	1	8	-17	56*
c1ccc(-c2ccc(-c3ccccn3)s2)nc1	-22	11	3	-1	-20	41*
O=C(O)c1ccc(-c2ccccn2)s1	10	3	0	-1	·	-2
CO[C@@H]1CN(C)C(=O)c2cc(NC(=O)Cc3ccccc3)ccc2OC[C@H](C)N(C(=O)c2ccccc2F)C[C@@H]1C	·	·	·	·	9	·
CCN(CC(=O)Nc1cccc(OC)c1)CC(=O)Nc1ccc(C)cc1Cl	-6	1	-2	·	·	66*
CC(C)NC(=O)Nc1ccc2c(c1)C(=O)N([C@@H](C)CO)C[C@@H](C)[C@@H](CN(C)S(=O)(=O)c1cn(C)cn1)O2	·	·	·	·	10	·
COc1ccc(NC(=O)c2cc3c(-c4ccc(OC)c(OC)c4)nn(C)c3s2)cc1OC	-31	2	1	10	-18	56*
C[C@H](CO)N1C[C@H](C)[C@@H](CN(C)C(=O)NC2CCCCC2)OCCCC[C@H](C)Oc2ccc(NS(=O)(=O)c3ccc(Cl)cc3)cc2C1=O	·	·	·	·	5	·
O=C(Cc1cccc2ccccc12)NN1C(=O)/C(=C\c2cccnc2)SC1=S	141*	-7	2	-1	-11	16
C[C@@H]1CN([C@H](C)CO)C(=O)c2cccc(NC(=O)NC3CCCCC3)c2O[C@@H]1CN(C)C(=O)Nc1cccc2ccccc12	·	·	·	·	24	·
